Article PMC9428891 (Frontiers in Pharmacology, 2022)

Sequences of proteins named here, by UniProt entry; tags and fusion partners are left off. Residues count along the entry.
UniProt O42275, 24-633: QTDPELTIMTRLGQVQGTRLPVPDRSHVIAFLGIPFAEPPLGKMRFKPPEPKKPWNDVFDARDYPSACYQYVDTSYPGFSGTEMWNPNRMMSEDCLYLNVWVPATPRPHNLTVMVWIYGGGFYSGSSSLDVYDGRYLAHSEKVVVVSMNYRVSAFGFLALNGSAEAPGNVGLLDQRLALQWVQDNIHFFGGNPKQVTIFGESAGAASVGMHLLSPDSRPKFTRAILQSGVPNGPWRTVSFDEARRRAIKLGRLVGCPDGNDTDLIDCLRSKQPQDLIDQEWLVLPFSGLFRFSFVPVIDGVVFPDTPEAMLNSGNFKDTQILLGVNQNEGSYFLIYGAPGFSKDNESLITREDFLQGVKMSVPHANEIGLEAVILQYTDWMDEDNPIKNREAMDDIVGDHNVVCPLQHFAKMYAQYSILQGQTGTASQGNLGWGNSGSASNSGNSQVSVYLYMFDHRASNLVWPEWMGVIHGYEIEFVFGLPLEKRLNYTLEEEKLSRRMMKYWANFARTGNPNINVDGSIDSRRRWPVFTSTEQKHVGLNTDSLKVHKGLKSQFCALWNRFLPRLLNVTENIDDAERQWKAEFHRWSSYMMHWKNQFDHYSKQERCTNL

Biological target: T1, acetylcholinesterase (AChE) (Electrophorus electricus, UniProt O42275)
T1 construct: purchased Sigma Aldrich C3389-2KU
Assay: biochemical
Conditions: read-out: K i ± SEM
Experimental: Enzyme-substrate (ES) is the complex of AChE and acetylcholine, while P represents the product formed after the reaction’s completion. Dissociation constant values were calculated through Dixon plots, their secondary replots, and the Lineweaver-Burk plot ([Khan et al., 2021]).
The values of K m, K i, and V max were determined from Dixon and Lineweaver-Burk plots using no linear regression equation.
GraFit software ([Khan et al., 2021]) was utilized for plotting graphs. The values of the correlation coefficients, slopes, intercepts, and their standard errors were determined by the linear regression equation using the same program.
During kinetic studies, the reaction rate was measured and the effect of different concentrations of a substrate on the enzyme was investigated. The kinetic study of enzymes helped to determine the catalytic mechanism of enzymes. […] The rate of reaction [V] was plotted against various substrate concentrations [S] at constant enzyme concentration. Initially, the rate of reaction [V] increases as substrate concentration increases, and at higher [S], the enzyme becomes saturated, and the rate of reaction reaches V max, which is referred to as the maximum rate of reaction.
The dissociation constant K i values were found using three different methods. […]

Work on `CCSc1nc2ccccc2n1CC(=O)N/N=C/c1c2ccccc2cc2ccccc12` [Compound 14] yielded a Ki of 19.2 ± 1.9 µM.
